US9062119B2, “Modified peptide toxins” (University of Debrecen, priority 2011, dated 2015)
pKd: −log10 of the molar value. Like-named read-outs stand apart in the source and are kept apart here.

Protein sequences, listed by entry. Tags and fused reporters are not part of them.
UniProt P16389, whole entry: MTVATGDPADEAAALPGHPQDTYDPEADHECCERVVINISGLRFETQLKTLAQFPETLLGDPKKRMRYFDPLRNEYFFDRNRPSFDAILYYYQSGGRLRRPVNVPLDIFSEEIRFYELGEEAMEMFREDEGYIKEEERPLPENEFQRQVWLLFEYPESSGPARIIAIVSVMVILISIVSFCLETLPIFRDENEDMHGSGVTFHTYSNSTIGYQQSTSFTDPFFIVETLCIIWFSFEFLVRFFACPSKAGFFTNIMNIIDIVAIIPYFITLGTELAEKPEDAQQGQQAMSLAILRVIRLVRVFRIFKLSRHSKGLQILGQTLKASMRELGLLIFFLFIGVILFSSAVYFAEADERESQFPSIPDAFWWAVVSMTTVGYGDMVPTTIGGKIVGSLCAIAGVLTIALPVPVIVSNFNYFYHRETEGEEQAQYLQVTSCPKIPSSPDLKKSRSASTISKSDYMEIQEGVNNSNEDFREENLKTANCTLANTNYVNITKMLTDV
UniProt P22001, whole entry: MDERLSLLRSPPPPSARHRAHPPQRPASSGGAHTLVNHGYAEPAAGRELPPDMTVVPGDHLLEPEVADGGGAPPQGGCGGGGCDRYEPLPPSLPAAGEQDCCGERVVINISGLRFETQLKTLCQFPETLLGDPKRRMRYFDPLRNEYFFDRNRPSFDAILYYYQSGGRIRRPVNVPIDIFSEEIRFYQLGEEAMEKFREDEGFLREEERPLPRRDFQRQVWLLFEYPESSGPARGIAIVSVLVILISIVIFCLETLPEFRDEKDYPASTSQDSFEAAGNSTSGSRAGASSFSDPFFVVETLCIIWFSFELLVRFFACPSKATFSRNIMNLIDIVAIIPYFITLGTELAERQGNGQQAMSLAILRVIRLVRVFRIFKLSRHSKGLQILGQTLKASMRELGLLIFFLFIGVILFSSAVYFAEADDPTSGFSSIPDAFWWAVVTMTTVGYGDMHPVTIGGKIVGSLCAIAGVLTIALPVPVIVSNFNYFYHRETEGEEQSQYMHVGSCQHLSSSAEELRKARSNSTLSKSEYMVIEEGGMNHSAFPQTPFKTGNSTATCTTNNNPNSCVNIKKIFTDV

Assays:
hKv1.2 = biological target: T1, hKv1.2 (Homo sapiens, UniProt P16389); test: Whole-cell patch-clamp block of hKv1.2 expressed in Cos-7 cells; format: cell-based
T1 construct: expressed in transfected cells; host or cells: Cos-7 cells, co-transfected with a separate GFP plasmid

Kv1.3 channels [1] = biological target: T2, Kv1.3 channels (Homo sapiens, UniProt P22001); test: Whole-cell patch-clamp block of Kv1.3 currents in activated human peripheral T lymphocytes; format: cell-based
T2 construct: endogenous in cells

Kv1.3 channels [2] = test: as above; format: cell-based
DTH = conditions: rats; Varga Z. et al. (2012); cited from earlier work

CSCC[C@@H]1NC(=O)[C@@H]2CSSC[C@H](NC(=O)[C@H](CCC(=O)O)NC(=O)[C@H](CCCCN)NC(=O)[C@@H]3CCC(=O)N3)C(=O)N[C@@H]([C@@H](C)O)C(=O)NCC(=O)N3CCC[C@H]3C(=O)N[C@@H](CCC(N)=O)C(=O)N[C@@H](Cc3c[nH]cn3)C(=O)N[C@H]3CSSC[C@H](NC(=O)[C@H](CCCCN)NC(=O)[C@H](CCCNC(=N)N)NC(=O)[C@H](CC(N)=O)NC1=O)C(=O)N[C@@H](CCCCN)C(=O)N[C@H]1CSSC[C@H](NC(=O)[C@H](Cc4ccccc4)NC(=O)[C@H](CC(N)=O)NC(=O)[C@H]([C@@H](C)O)NC3=O)C(=O)N[C@@H](CCCNC(=N)N)C(=O)N[C@@H](CC(=O)O)C(=O)N[C@@H](C)C(=O)N[C@@H](CCCCN)C(=O)N[C@@H](CSSC[C@@H](C(=O)N[C@@H](CCCCN)C(=O)O)NC(=O)[C@H](CC(N)=O)NC(=O)[C@H](Cc3ccc(O)cc3)NC1=O)C(=O)N[C@@H]([C@@H](C)O)C(=O)N[C@@H](Cc1c[nH]cn1)C(=O)NCC(=O)N[C@@H](CCCCN)C(=O)N2 [(K16D, N17A, F32Y)]
pKd (hKv1.2; Hill fit of remaining current fraction, read-out: Kd for Kv1.2): 7.63 | pKd (Kv1.3 channels [1]): 8.85 | selectivity ratio SR=Kd[1.2]/Kd[1.3] (Kv1.3 channels [2]): 17

CSCC[C@@H]1NC(=O)[C@@H]2CSSC[C@H](NC(=O)[C@H](CCC(=O)O)NC(=O)[C@H](CCCCN)NC(=O)[C@@H]3CCC(=O)N3)C(=O)N[C@@H]([C@@H](C)O)C(=O)NCC(=O)N3CCC[C@H]3C(=O)N[C@@H](CCC(N)=O)C(=O)N[C@@H](Cc3c[nH]cn3)C(=O)N[C@H]3CSSC[C@H](NC(=O)[C@H](CCCCN)NC(=O)[C@H](CCCNC(=N)N)NC(=O)[C@H](CC(N)=O)NC1=O)C(=O)N[C@@H](CCCCN)C(=O)N[C@H]1CSSC[C@H](NC(=O)[C@H](Cc4ccccc4)NC(=O)[C@H](CC(N)=O)NC(=O)[C@H]([C@@H](C)O)NC3=O)C(=O)N[C@@H](CCCNC(=N)N)C(=O)N[C@@H](CCCCN)C(=O)N[C@@H](C)C(=O)N[C@@H](CCCCN)C(=O)N[C@@H](CSSC[C@@H](C(=O)N[C@@H](CCCCN)C(=O)O)NC(=O)[C@H](CC(N)=O)NC(=O)[C@H]([C@@H](C)O)NC1=O)C(=O)N[C@@H]([C@@H](C)O)C(=O)N[C@@H](Cc1c[nH]cn1)C(=O)NCC(=O)N[C@@H](CCCCN)C(=O)N2 [(N17A, F32T)]
improvement of affinity for Kv1.2 compared to F32T alone (hKv1.2; compared to F32T): 5 fold | pKd (Kv1.3 channels [1]): 9.20 | increase of affinity for Kv1.3 compared to F32T alone (Kv1.3 channels [1]; compared to F32T): 12 fold | selectivity for Kv1.3 over Kv1.2 (Kv1.3 channels [2]; ratio of Kd,Kv1.2 and Kd,Kv1.3): 2400 fold

CSCC[C@@H]1NC(=O)[C@@H]2CSSC[C@H](NC(=O)[C@H](CCC(=O)O)NC(=O)[C@H](CCCCN)NC(=O)[C@@H]3CCC(=O)N3)C(=O)N[C@@H]([C@@H](C)O)C(=O)NCC(=O)N3CCC[C@H]3C(=O)N[C@@H](CCC(N)=O)C(=O)N[C@@H](Cc3c[nH]cn3)C(=O)N[C@H]3CSSC[C@H](NC(=O)[C@H](CCCCN)NC(=O)[C@H](CCCNC(=N)N)NC(=O)[C@H](CC(N)=O)NC1=O)C(=O)N[C@@H](CCCCN)C(=O)N[C@H]1CSSC[C@H](NC(=O)[C@H](Cc4ccccc4)NC(=O)[C@H](CC(N)=O)NC(=O)[C@H]([C@@H](C)O)NC3=O)C(=O)N[C@@H](CCCNC(=N)N)C(=O)N[C@@H](CCCCN)C(=O)N[C@@H](CC(N)=O)C(=O)N[C@@H](CCCCN)C(=O)N[C@@H](CSSC[C@@H](C(=O)N[C@@H](CCCCN)C(=O)O)NC(=O)[C@H](CC(N)=O)NC(=O)[C@H]([C@@H](C)O)NC1=O)C(=O)N[C@@H]([C@@H](C)O)C(=O)N[C@@H](Cc1c[nH]cn1)C(=O)NCC(=O)N[C@@H](CCCCN)C(=O)N2 [F32T]
block of Kv1.2 (hKv1.2; at 100 nM concentration): very small amount of block | estimated increase in Kd for Kv1.2 (hKv1.2; compared to sWT, estimated from block at 100 nM): about 1000 fold | pKd (Kv1.3 channels [1]): 8.12 | reduction of toxin affinity for Kv1.3 compared to the sWT toxin (Kv1.3 channels [1]; compared to sWT): about 26 fold

CSCC[C@@H]1NC(=O)[C@@H]2CSSC[C@H](NC(=O)[C@H](CCC(=O)O)NC(=O)[C@H](CCCCN)NC(=O)[C@@H]3CCC(=O)N3)C(=O)N[C@@H]([C@@H](C)O)C(=O)NCC(=O)N3CCC[C@H]3C(=O)N[C@@H](CCC(N)=O)C(=O)N[C@@H](Cc3c[nH]cn3)C(=O)N[C@H]3CSSC[C@H](NC(=O)[C@H](CCCCN)NC(=O)[C@H](CCCNC(=N)N)NC(=O)[C@H](CC(N)=O)NC1=O)C(=O)N[C@@H](CCCCN)C(=O)N[C@H]1CSSC[C@H](NC(=O)[C@H](Cc4ccccc4)NC(=O)[C@H](CC(N)=O)NC(=O)[C@H]([C@@H](C)O)NC3=O)C(=O)N[C@@H](CCCNC(=N)N)C(=O)N[C@@H](CCCCN)C(=O)N[C@@H](CC(N)=O)C(=O)N[C@@H](CCCCN)C(=O)N[C@@H](CSSC[C@@H](C(=O)N[C@@H](CCCCN)C(=O)O)NC(=O)[C@H](CC(N)=O)NC(=O)[C@H](Cc3ccccc3)NC1=O)C(=O)N[C@@H]([C@@H](C)O)C(=O)N[C@@H](Cc1c[nH]cn1)C(=O)NCC(=O)N[C@@H](CCCCN)C(=O)N2 [sWT, Anuroctoxin, reference compound]
pKd (hKv1.2): 8.28 | inhibition of DTH (DTH): inhibit DTH | pKd (Kv1.3 channels [1]): 9.52
